Bounds are passed on as bounds.

Amino acid sequences for entries named in this document (tags omitted).
UniProt O35433, whole entry: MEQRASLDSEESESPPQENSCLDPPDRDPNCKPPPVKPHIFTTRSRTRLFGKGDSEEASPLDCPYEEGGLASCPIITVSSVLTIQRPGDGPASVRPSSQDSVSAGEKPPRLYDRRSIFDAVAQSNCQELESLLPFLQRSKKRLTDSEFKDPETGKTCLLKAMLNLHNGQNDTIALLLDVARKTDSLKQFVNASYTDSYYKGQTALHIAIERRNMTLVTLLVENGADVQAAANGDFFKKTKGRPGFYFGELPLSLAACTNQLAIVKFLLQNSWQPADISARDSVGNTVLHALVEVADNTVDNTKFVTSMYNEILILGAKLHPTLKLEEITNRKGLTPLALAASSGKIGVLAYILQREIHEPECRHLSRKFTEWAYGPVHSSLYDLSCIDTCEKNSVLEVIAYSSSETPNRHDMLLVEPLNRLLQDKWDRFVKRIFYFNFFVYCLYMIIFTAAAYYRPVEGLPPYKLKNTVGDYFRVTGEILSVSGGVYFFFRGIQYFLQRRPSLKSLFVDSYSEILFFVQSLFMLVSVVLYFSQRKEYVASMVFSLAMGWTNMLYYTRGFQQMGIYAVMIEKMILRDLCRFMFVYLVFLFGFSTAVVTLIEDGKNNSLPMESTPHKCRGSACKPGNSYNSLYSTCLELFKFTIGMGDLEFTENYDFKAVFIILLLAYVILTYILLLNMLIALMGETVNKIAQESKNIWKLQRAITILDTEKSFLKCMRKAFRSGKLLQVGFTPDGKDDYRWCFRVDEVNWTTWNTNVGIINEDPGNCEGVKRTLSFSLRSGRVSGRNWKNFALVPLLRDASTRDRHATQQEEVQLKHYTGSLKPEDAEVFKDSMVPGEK

Experiment [1] concerns the target vanilloid receptor (Rattus norvegicus, UniProt O35433). The experiment is described as follows: 45Ca influx test (calcium uptake) in cultured DRG neurons, capsaicin-stimulated. To be noted: read-out: Calcium Uptake Test(IC50); neonatal SD rat DRG neurons; capsaicin 0.5 μM; 45Ca 10 μCi/ml; 10 min at room temperature; NR: no response. Format: cell-based.
Experiment [2] addresses cation channel connected to vanilloid receptor (Rattus norvegicus, UniProt O35433). The experiment is described as follows: Channel activity assay (patchclamp test). To be noted: potency relative to capsazepine. Set-up: key to the marks not given beside the values. A general note: In patch-clamp work, channel activity is measured electrically.
In experiment [3] the test system is Male ICR mice. Description: Analgesic activity test: mouse writhing test by inducing with phenyl-p-quinone. The note with it: dose 1 mg/kg intraperitoneally 30 min before phenyl-p-quinone; writhes vs control.
The subject of experiment [4] is Male ICR mice. The experiment is described as follows: Antiinflammatory activity test: TPA-induced mouse ear edema test. To be noted: dose 1 mg/ear topical; TPA 2.5 μg; ear weight 24 h after TPA.

For orientation: IC50 means the concentration at which inhibition is half-maximal. Turning to `Cc1ccc(CC(CNC(=S)NCc2ccc(NS(=O)(=O)c3ccccc3)cc2)COC(=O)C(C)(C)C)cc1C` (stereo not drawn), the IC50 in experiment [1] is above 50 µM. On the same count and under the same terms, the same measure for `CCS(=O)(=O)Nc1ccc(CNC(=S)NCC(COC(=O)C(C)(C)C)Cc2ccc(C)c(C)c2)cc1` (stereo not drawn): 2.5 µM. On to `Cc1ccc(CC(CNC(=S)NCc2ccc(NS(C)(=O)=O)cc2)COC(=O)C(C)(C)C)cc1C` (stereo not drawn), for which, in experiment [1], the IC50 turned out to be 0.45 µM. For the same compound, the “Patchclamp Test (antagonistic activities)” value in experiment [2] is given as “++”. Besides, in experiment [3], the “Analgesic effect (% Inhibition)” value was 50%. In addition, the “Anti-inflammatory effect (% Inhibition)” value in experiment [4] is reported as 34%. Turning to `Cc1ccc(CC(CNC(=S)NCc2ccc(NS(=O)(=O)C(F)(F)F)cc2)COC(=O)C(C)(C)C)cc1C` (stereo not drawn), in experiment [1], the IC50 was found to be 11 µM. Still for that read-out and setting: the same measure for `CCCS(=O)(=O)Nc1ccc(CNC(=S)NCC(COC(=O)C(C)(C)C)Cc2ccc(C)c(C)c2)cc1` (stereo not drawn): 4.3 µM; for `Cc1ccc(CC(CNC(=S)NCc2ccc(NS(=O)(=O)C(C)C)cc2)COC(=O)C(C)(C)C)cc1C` (stereo not drawn): 32 µM.

Source of the values: patent US7067553B2, “Thiourea compounds and the pharmaceutical compositions containing the same” (Pacific Corporation, priority 2000, dated 2006).
